ChEMBL document CHEMBL1926631, “N⁴-Aryl-6-substitutedphenylmethyl-7H-pyrrolo[2,3-d]pyrimidine-2,4-diamines as receptor tyrosine kinase inhibitors” (Bioorg Med Chem, 2012)

Chains of the proteins cited; added tags and fusions are not shown.
UniProt P17948, whole entry: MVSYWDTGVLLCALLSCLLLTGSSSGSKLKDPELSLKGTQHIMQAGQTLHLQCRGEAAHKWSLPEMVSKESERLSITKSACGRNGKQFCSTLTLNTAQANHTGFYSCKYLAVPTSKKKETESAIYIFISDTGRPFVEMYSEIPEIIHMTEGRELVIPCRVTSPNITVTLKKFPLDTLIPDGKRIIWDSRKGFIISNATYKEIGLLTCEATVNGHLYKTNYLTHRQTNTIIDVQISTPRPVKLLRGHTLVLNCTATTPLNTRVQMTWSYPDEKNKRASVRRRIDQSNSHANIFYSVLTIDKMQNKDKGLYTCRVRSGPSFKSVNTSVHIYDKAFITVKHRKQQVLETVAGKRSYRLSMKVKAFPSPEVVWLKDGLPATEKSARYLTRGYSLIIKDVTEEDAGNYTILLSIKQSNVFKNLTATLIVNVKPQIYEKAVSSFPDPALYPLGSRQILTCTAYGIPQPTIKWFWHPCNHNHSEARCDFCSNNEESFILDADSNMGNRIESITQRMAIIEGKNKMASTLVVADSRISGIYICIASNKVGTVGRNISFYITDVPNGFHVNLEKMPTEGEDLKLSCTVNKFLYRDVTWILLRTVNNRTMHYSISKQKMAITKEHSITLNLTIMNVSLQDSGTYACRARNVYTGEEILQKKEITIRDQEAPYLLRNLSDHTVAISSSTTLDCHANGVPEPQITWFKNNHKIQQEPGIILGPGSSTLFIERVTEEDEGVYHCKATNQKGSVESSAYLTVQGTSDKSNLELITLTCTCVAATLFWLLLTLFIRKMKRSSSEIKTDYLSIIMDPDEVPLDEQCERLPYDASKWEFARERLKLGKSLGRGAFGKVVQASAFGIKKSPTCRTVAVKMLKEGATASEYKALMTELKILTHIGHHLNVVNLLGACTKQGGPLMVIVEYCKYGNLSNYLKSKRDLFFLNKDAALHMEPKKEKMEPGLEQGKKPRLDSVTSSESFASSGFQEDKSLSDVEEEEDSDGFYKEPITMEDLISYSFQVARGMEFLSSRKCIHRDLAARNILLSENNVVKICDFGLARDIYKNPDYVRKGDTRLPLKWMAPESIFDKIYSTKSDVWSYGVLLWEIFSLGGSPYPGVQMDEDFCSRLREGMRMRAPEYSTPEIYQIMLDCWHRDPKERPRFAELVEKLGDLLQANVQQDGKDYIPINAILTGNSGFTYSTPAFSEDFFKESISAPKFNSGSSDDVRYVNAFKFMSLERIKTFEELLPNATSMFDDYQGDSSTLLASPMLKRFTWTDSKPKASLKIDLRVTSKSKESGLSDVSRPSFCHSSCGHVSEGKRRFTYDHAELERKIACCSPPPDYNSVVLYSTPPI
UniProt P09619, whole entry: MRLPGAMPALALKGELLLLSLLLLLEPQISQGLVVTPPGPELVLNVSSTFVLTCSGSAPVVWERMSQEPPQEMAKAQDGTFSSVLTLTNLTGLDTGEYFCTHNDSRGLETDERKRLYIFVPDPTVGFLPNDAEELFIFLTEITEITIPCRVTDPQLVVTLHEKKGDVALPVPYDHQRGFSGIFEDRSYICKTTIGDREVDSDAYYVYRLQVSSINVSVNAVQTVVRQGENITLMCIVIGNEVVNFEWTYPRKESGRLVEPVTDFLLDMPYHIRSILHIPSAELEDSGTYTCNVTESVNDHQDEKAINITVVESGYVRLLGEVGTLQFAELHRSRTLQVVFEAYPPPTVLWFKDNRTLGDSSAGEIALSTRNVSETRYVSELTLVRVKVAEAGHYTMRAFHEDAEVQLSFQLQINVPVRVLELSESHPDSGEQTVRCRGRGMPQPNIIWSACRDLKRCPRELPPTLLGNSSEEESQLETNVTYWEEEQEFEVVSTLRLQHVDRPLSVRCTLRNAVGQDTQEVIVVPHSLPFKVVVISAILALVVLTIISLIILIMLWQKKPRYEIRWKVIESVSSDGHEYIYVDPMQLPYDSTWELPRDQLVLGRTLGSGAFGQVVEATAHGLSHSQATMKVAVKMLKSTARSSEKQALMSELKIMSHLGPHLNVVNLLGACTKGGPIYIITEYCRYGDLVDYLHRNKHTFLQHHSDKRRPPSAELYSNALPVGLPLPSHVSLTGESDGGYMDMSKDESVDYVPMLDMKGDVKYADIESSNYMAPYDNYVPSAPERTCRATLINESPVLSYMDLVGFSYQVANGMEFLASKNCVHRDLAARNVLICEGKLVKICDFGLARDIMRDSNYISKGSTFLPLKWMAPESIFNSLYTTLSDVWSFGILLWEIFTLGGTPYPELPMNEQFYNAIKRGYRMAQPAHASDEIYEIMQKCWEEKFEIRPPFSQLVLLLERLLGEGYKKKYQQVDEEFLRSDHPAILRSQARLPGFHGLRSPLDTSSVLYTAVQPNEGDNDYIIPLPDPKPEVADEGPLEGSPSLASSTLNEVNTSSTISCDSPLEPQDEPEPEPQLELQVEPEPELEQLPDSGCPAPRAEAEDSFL
UniProt P35968, whole entry: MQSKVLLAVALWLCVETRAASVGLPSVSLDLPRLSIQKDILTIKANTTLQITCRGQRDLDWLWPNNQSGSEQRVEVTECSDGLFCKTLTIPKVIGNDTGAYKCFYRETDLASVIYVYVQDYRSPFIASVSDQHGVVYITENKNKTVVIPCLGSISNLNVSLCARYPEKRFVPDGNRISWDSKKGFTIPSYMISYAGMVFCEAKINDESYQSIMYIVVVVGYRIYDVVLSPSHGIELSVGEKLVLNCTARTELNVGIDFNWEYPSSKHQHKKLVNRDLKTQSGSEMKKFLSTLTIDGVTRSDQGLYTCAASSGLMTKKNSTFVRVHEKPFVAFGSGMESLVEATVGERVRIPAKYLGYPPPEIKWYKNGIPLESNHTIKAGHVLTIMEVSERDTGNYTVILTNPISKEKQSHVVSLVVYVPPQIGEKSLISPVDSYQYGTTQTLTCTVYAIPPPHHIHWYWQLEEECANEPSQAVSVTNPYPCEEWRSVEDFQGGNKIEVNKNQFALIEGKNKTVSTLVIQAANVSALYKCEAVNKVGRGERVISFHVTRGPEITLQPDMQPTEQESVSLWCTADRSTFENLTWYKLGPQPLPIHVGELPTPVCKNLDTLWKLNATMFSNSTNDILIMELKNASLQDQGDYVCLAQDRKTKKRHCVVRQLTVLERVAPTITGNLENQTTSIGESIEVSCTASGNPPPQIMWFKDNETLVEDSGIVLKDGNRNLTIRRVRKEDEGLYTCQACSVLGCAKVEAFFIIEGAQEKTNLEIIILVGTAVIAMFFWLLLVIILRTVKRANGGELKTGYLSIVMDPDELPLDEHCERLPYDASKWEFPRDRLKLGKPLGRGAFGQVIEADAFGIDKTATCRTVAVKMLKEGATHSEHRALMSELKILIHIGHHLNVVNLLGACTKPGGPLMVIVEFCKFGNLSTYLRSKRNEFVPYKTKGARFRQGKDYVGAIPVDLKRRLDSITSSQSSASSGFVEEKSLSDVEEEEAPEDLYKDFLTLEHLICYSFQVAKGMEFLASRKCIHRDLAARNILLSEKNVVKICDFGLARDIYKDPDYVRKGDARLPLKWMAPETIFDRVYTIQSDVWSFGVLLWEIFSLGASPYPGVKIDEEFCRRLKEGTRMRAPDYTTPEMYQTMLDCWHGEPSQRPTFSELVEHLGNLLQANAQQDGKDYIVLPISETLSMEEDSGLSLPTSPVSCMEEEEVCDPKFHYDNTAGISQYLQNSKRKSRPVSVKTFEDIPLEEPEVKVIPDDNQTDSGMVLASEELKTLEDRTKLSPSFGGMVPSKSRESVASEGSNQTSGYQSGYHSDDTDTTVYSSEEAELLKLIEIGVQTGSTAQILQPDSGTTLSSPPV

Experiments:
[1] = biological target: Vascular endothelial growth factor receptor 1 (Homo sapiens, UniProt P17948); experiment: Inhibition of VEGFR1 tyrosine kinase activity in VEGF-stimulated human A498 cells after 60 mins by ELISA; assay type: cell-based
Method in brief: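 Then stimulated 10 min with 100 ng/mL growth factor: PDGF-BB for SF-539 (PDGFR-β), VEGF for A498 (VEGFR-1). Lysed in ice-cold TBS/0.05% triton with protease and phosphatase inhibitors, heat/ethanol-fixed. Total phosphotyrosine read by HRP anti-phosphotyrosine with luminol chemiluminescence.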

[2] = biological target: Platelet-derived growth factor receptor beta (Homo sapiens, UniProt P09619); experiment: Inhibition of PDGFRbeta tyrosine kinase activity in PDGF-BB-stimulated human SF-539 cells after 60 mins by ELISA; assay type: cell-based
Method in brief: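 Lysed in ice-cold TBS/0.05% triton with protease and phosphatase inhibitors, heat/ethanol-fixed. Total phosphotyrosine read by HRP anti-phosphotyrosine with luminol chemiluminescence.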

[3] = biological target: Vascular endothelial growth factor receptor 2 (Homo sapiens, UniProt P35968); experiment: Inhibition of VEGFR2 tyrosine kinase activity in VEGF-stimulated human U251 cells after 60 mins by ELISA; assay type: cell-based, U-251

IC50 [1]	IC50 [2]	IC50 [3]	SMILES
31.1 µM	8.92 µM		COc1ccc(OC)c(Cc2cc3c(Nc4cccc(Br)c4)nc(N)nc3[nH]2)c1
	> 50 µM	5.08 µM	Nc1nc(Nc2cccc(Br)c2)c2cc(Cc3cccc4ccccc34)[nH]c2n1
